Consider 31 compounds from PubChem BioAssay AID1745845 (National Center for Advancing Translational Sciences (NCATS), 2022).

The structures appear in SMILES notation. Only a part is listed here, and it is no random draw. Results filed as inconclusive are left out. Entries that show only a call come without a potency. Active and inactive are the calls of the source. The call rests on the fitted dose curve; in most records, active means well fitted inhibition curve with a large enough effect; inconclusive means small, poorly fitted or top-dose-only effect; inactive means no such curve, though single readings can be large or run the other way.
Potency means the concentration at half of the fitted maximal effect.

A short description of the experiment: Primary qHTS for Inhibitors of ATXN expression. Further: nearly all actives have a fitted effect of over 55% in size. Conditions: HEK-293 ATXN2-luciferase reporter, luminescence, 24 h; series mostly up to 57 µM. (In qHTS, concentration-response curves come from the screen itself.)
Regarding `CN(C)C1(CNC(=O)c2ccc(Cl)c(S(N)(=O)=O)c2)CCCCC1`, the activity change, negative = inhibition entry is “inactive”.

For `C[C@H]1OP(=O)(Oc2ccccc2)[C@H](O)[C@H](O)[C@H]1N=[N+]=[N-]` (stereo partly specified), the activity change, negative = inhibition entry was “inactive”. Take `O=P(Nc1nc2ccccc2s1)(c1ccccc1)c1ccccc1`: the activity change, negative = inhibition result is “inactive”. With `CN(C(=O)Cc1ccccc1)[C@H]1CC[C@@]2(CCCO2)C[C@@H]1N1CCCC1`, the activity change, negative = inhibition result was “inactive”.

For the compound `Cc1cc([N+](=O)[O-])cc([N+](=O)[O-])c1O`, the activity change, negative = inhibition result was “inactive”. With `CC(C)C(=O)NC(Sc1ccccc1)C(Cl)(Cl)Cl` (stereo unspecified), the activity change, negative = inhibition result was “inactive”. Same read-out and setting: with `O=P(Nc1nccs1)(c1ccccc1)c1ccccc1` the entry was “inactive”. As for `c1nnnn1CCn1cnnn1`, the activity change, negative = inhibition entry was “inactive”. In the case of `COC(=O)C1(C)COP(=O)(NCc2ccccc2)OC1` (stereo unspecified), the activity change, negative = inhibition entry was “inactive”. With `CC(=O)c1ccc(N2CC2c2ccncc2)cc1` (stereo unspecified), the activity change, negative = inhibition entry is “inactive”.

As to `C[C@@H]1C=CCP(=O)(Oc2ccccc2)O1` (stereo partly specified), the activity change, negative = inhibition entry is “inactive”.

Regarding `C[C@H]1OP(=O)(Oc2ccccc2)C[C@@H]2O[C@@H]21` (stereo partly specified), the activity change, negative = inhibition result was “inactive”. With `Cc1ccccc1CN(C)C(=O)COC(=O)C(O)(c1ccccc1)c1ccccc1`, the activity change, negative = inhibition result was “inactive”. The same measure, in the same setting: with `CC(=O)Nc1ccc([As](=O)(O)O)c(O)c1` the entry was “inactive”. Still for that read-out and setting: with `O=P1(Nc2nc3ccc(Cl)cc3s2)COc2ccccc2O1` (stereo unspecified) the entry was “inactive”. With `CCc1cc(O)c([N+](=O)[O-])c(C)c1[N+](=O)[O-]`, the activity change, negative = inhibition entry is “inactive”.

For `CC(C)(C)C(=O)NC(Sc1ccccc1)C(Cl)(Cl)Cl` (stereo unspecified), the activity change, negative = inhibition result was “inactive”. On to `Cc1ccc(OP(=O)(Nc2ccccn2)Oc2ccc(C)cc2)cc1`, for which the activity change, negative = inhibition result was “inactive”. Regarding `CC(=O)NC(SC(=S)N(CC(C)C)CC(C)C)C(Cl)(Cl)Cl` (stereo unspecified), the activity change, negative = inhibition entry is “inactive”. As to `COC(=O)c1cc2c(s1)N=C(c1ccccc1)N(C)P2(=O)N1CCOCC1` (stereo unspecified), the activity change, negative = inhibition entry was “inactive”. In the case of `CCC(=O)N1C2C3N(C(=O)CC)C1C1N(C(=O)CC)C(C(N1C(=O)CC)N3C(=O)CC)N2C(=O)CC`, the activity change, negative = inhibition result is “inactive”.

Consider `O=C(OC1CN2CCC1CC2)c1ccccc1` (stereo unspecified), for which the activity change, negative = inhibition result is “inactive”. For `CN(C)C(=O)Oc1noc2ccccc12`, the activity change, negative = inhibition entry was “inactive”.

On to `O=c1c2cc([N+](=O)[O-])ccc2[nH]c2c([N+](=O)[O-])cc([N+](=O)[O-])cc12`, for which the Potency was active: 3.98 µM. In the case of `Cc1ccccc1OP(=O)(Nc1ccccn1)Oc1ccccc1C`, the activity change, negative = inhibition entry was “inactive”.

With `CC(NC(=O)COC(=O)C(O)(c1ccccc1)c1ccccc1)c1ccccc1` (stereo unspecified), the activity change, negative = inhibition result was “inactive”. As to `CCNC(=S)/N=C(\N)N[N+](=O)[O-]`, the activity change, negative = inhibition result was “inactive”. Turning to `O=C(NC1CCS(=O)(=O)C1)NP(=S)(Oc1ccccc1)Oc1ccccc1` (stereo unspecified), the activity change, negative = inhibition result is “inactive”.

As for `Cc1ccc(NP(=O)(Oc2cccc(C)c2)Oc2cccc(C)c2)nc1`, the activity change, negative = inhibition entry was “inactive”. Consider `c1ccc(-c2nn[nH]n2)c(-c2nn[nH]n2)c1`, for which the activity change, negative = inhibition is inactive: -3.78% [at 11.3 µM]. As to `O=P1(N(CCCl)CCCl)OCCC2CCCCN21` (stereo unspecified), the activity change, negative = inhibition entry is “inactive”.
